Laboratory results reported in ChEMBL document CHEMBL1140158, “Soluble 3',6-substituted indirubins with enhanced selectivity toward glycogen synthase kinase -3 alter circadian period” (J Med Chem, 2008).

How the values were obtained:
[1] = tested on: Glycogen synthase kinase-3 (Sus scrofa); test: Inhibition of pig GSK3alpha/beta
[2] = Inhibition of human recombinant CDK5/p25 expressed in Escherichia coli

Compound	IC50 [1] [nM]	IC50 [2] [nM]
Cl.Cl.O=C1Nc2cc(Br)ccc2/C1=C1/Nc2ccccc2/C1=N\OCCN1CCNCC1	1.3	
CN(C)CCO/N=C1/C(=C2/C(=O)Nc3cc(Br)ccc32)Nc2ccccc21.Cl		53
O=C1Nc2cc(Br)ccc2/C1=C1/Nc2ccccc2/C1=N\OCCN1CCNCC1	3.3	
